Measured values as given in ChEMBL document CHEMBL1201862, “PubChem BioAssay data set” (2004).
The other results are listed elsewhere or left out. Cut-off read from the data, not from the text of the source: active = GI50 up to about 1.1 µM and inactive = higher. These assays gave more results; the selection is not random.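 Protocol summary: plate cells (96-well), add compound at 5 concentrations, incubate 48 h, interpolate endpoints linearly. The concentration for 50% growth inhibition is given as GI50.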 For some assays here: Results with a measured potency or affinity are listed apart.

Assays:
Experiment in all cases: NCI tumour cell line growth inhibition, 48 h
[1] = system: NCI/ADR-RES
[2] = system: OVCAR-3
[3] = system: OVCAR-4
[4] = system: OVCAR-5
[5] = system: OVCAR-8
[6] = system: PC-3
[7] = system: RPMI-8226
[8] = system: SF-268
[9] = system: SF-295
[10] = system: SF-539
[11] = system: SK-MEL-28
[12] = system: SK-MEL-2
[13] = system: SK-MEL-5
[14] = system: SK-OV-3
[15] = system: SN12C
[16] = system: SNB-19
[17] = system: SNB-75
[18] = system: SR
[19] = system: SNB-78
[20] = system: RXF 631

Measured: GI50

COc1ccc(C[N+](C)(CCCl)CCCl)c([N+](=O)[O-])c1
inactive: [1] > 100 µM | [2] > 100 µM | [3] > 100 µM | [4] > 100 µM | [5] > 100 µM | [6] > 100 µM | [7] > 100 µM | [8] 82.6 µM | [9] > 100 µM | [10] > 100 µM | [11] > 100 µM | [12] > 100 µM | [13] 27.7 µM | [14] > 100 µM | [15] > 100 µM | [16] > 100 µM | [17] > 100 µM | [18] 8.61 µM

O=[N+]([O-])C1([N+](=O)[O-])CCCc2nonc21
inactive: [1] 36.6 µM | [2] 54.6 µM | [3] 38 µM | [4] > 100 µM | [5] 33.3 µM | [6] 34 µM | [7] 26.4 µM | [8] 69.8 µM | [9] > 100 µM | [10] 39.8 µM | [11] > 100 µM | [12] 47.3 µM | [13] 40.8 µM | [14] > 100 µM | [15] 37.2 µM | [16] > 100 µM | [17] 59.3 µM | [18] 26.5 µM

CC1=CC2O[C@@H]3C[C@H]4OC(=O)/C=C\C=C\C56OCCC7(OC7C(=O)OC[C@@]2(CC1)[C@]4(C)[C@]31CO1)C5OC(O)C6O (stereo partly specified)
active: [13] < 0.001 µM | [16] 0.00159 µM

O[C@H]1[C@@H](O)CC2CCN3Cc4cc5c(cc4[C@H]1C23)OCO5 (stereo partly specified)
inactive: [2] > 100 µM | [5] > 100 µM | [7] > 100 µM | [8] > 100 µM | [9] > 100 µM | [10] > 100 µM | [11] > 100 µM | [14] > 100 µM | [15] > 100 µM | [16] > 100 µM | [17] > 100 µM | [19] > 100 µM | [18] > 100 µM

O=[As](O)(O)O
inactive: [1] > 100 µM | [2] > 100 µM | [3] > 100 µM | [4] > 100 µM | [5] > 100 µM | [6] > 100 µM | [7] > 100 µM | [8] > 100 µM | [9] > 100 µM | [10] > 100 µM | [11] > 100 µM | [12] > 100 µM | [13] > 100 µM | [14] > 100 µM | [15] > 100 µM | [16] > 100 µM | [17] > 100 µM | [18] > 100 µM

Nc1nc2c(ncn2CCN(CCCl)CCCl)c(=O)[nH]1
inactive: [2] > 100 µM | [3] > 100 µM | [4] > 100 µM | [5] > 100 µM | [7] > 100 µM | [20] > 100 µM | [8] > 100 µM | [9] > 100 µM | [10] > 100 µM | [11] > 100 µM | [12] > 100 µM | [13] > 100 µM | [15] > 100 µM | [16] > 100 µM | [19] > 100 µM | [18] > 100 µM

COP(C)(=O)C(N)Cc1ccccc1 (stereo unspecified)
inactive: [1] > 100 µM | [2] > 100 µM | [3] > 100 µM | [4] > 100 µM | [5] > 100 µM | [6] > 100 µM | [7] > 100 µM | [8] > 100 µM | [9] > 100 µM | [11] > 100 µM | [12] > 100 µM | [13] 71.8 µM | [14] > 100 µM | [15] > 100 µM | [16] > 100 µM | [17] > 100 µM | [18] > 100 µM

C[S+](N)(=O)CCC(N)P(=O)(O)O (stereo unspecified)
inactive: [1] > 100 µM | [2] > 100 µM | [3] > 100 µM | [4] > 100 µM | [5] > 100 µM | [6] > 100 µM | [7] > 100 µM | [9] > 100 µM | [11] 73.5 µM | [12] > 100 µM | [13] > 100 µM | [14] > 100 µM | [15] > 100 µM | [16] > 100 µM | [18] > 100 µM

COc1ccc([N+](=O)[O-])c(C[N+](C)(CCCl)CCCl)c1
inactive: [1] > 100 µM | [2] > 100 µM | [3] > 100 µM | [4] > 100 µM | [5] > 100 µM | [6] > 100 µM | [7] > 100 µM | [8] > 100 µM | [9] > 100 µM | [10] > 100 µM | [11] > 100 µM | [12] > 100 µM | [13] > 100 µM | [14] > 100 µM | [15] > 100 µM | [16] > 100 µM | [17] 55.1 µM | [18] 5.7 µM

Cc1ccc2ccc3ccc4ccccc4c3c2c1.O=C1c2cc([N+](=O)[O-])ccc2-c2c1cc([N+](=O)[O-])cc2[N+](=O)[O-]
active: [3] 0.773 µM | [5] 1.03 µM | [7] 1.02 µM | [18] 0.989 µM
inactive: [1] 3.91 µM | [2] 1.14 µM | [4] 7.45 µM | [6] 2.34 µM | [8] 1.7 µM | [9] 3.91 µM | [10] 3.66 µM | [11] 7.14 µM | [12] 1.26 µM | [13] 2.73 µM | [14] 12.1 µM | [15] 4.47 µM | [16] 7.89 µM | [17] 2.61 µM

Cc1[nH]c2c(C)c([N+](=O)[O-])c(C)c([N+](=O)[O-])c2c1[N+](=O)[O-]
inactive: [2] 3.27 µM | [3] 10 µM | [5] 6.14 µM | [7] 3.66 µM | [8] 6.17 µM | [9] 6.21 µM | [10] 10.4 µM | [11] 6.49 µM | [14] 14.4 µM | [15] 11.8 µM | [16] 6.34 µM | [17] 16.3 µM | [19] 14.7 µM | [18] 6.47 µM

O=[N+]([O-])c1ncn(F)c1[N+](=O)[O-]
inactive: [1] > 100 µM | [2] > 100 µM | [3] 49.9 µM | [4] > 100 µM | [5] > 100 µM | [6] > 100 µM | [9] > 100 µM | [10] > 100 µM | [11] > 100 µM | [12] > 100 µM | [13] > 100 µM | [14] > 100 µM | [15] > 100 µM | [16] > 100 µM | [17] > 100 µM | [18] 59.6 µM

CCCC[S+](N)(=O)CCC(N)P(=O)(O)O (stereo unspecified)
inactive: [1] > 100 µM | [2] > 100 µM | [3] 64.1 µM | [4] > 100 µM | [5] > 100 µM | [6] > 100 µM | [7] > 100 µM | [9] > 100 µM | [11] 64 µM | [12] > 100 µM | [13] > 100 µM | [14] > 100 µM | [15] > 100 µM | [16] > 100 µM | [17] > 100 µM | [18] 10 µM

O=C1Nc2ccc([N+](=O)[O-])cc2/C1=N/Nc1ccc([N+](=O)[O-])cc1[N+](=O)[O-]
inactive: [2] 18 µM | [3] 17.9 µM | [5] 19.9 µM | [7] 24.6 µM | [20] 20.6 µM | [8] 36 µM | [9] 17.7 µM | [10] 21.8 µM | [11] 22.1 µM | [12] 46.5 µM | [13] 19.5 µM | [14] 34 µM | [15] 33 µM | [16] 20.1 µM | [17] 44.5 µM | [19] 31.3 µM | [18] 28.4 µM

COc1ccc2nccc(C=O)c2c1
inactive: [3] 4.32 µM | [4] 33.8 µM | [6] 3.72 µM | [8] 5.41 µM | [9] 5.69 µM | [11] 4.66 µM | [12] 20.5 µM | [13] 2.38 µM | [14] 20.7 µM | [15] 2.31 µM | [16] 2.22 µM | [17] 14.6 µM
active: [1] 0.71 µM | [2] 0.625 µM | [5] 0.451 µM | [7] 0.358 µM | [10] 0.379 µM | [18] 0.025 µM

Cc1ccc2ccc(C)c(C)c2c1.O=[N+]([O-])c1cc([N+](=O)[O-])c(O)c([N+](=O)[O-])c1O
active: [18] 0.288 µM
inactive: [1] > 100 µM | [2] > 100 µM | [3] > 100 µM | [4] > 100 µM | [5] 89.5 µM | [6] > 100 µM | [7] > 100 µM | [8] > 100 µM | [9] > 100 µM | [10] > 100 µM | [11] > 100 µM | [12] > 100 µM | [13] > 100 µM | [14] > 100 µM | [16] > 100 µM | [17] > 100 µM
